Assay results reported in patent publication US12473278B2 (Industry—University Cooperation Foundation Hangyang …, priority 2019, dated 2025).

Columns and labels:
Assay in all cases: Kinase panel screening
Settings in all cases: read-out: % inhibition rate
ABL1 = ABL1 (Homo sapiens (Human), UniProt P00519); format: biochemical
CDK2/cyclin E = CDK2/cyclin E (Homo sapiens (Human), UniProt P24941); format: biochemical
GSK3b = GSK3b (Homo sapiens (Human), UniProt P49841); format: biochemical
KDR/VEGFR2 = KDR/VEGFR2 (Homo sapiens (Human), UniProt P35968); format: biochemical
LCK = LCK (Homo sapiens (Human), UniProt P06239); format: biochemical
MTOR/FRAP1 = MTOR/FRAP1 (Homo sapiens (Human), UniProt P42345); format: biochemical
PLK1 = PLK1 (Homo sapiens (Human), UniProt P53350); format: biochemical
AKT1 = AKT1 (Homo sapiens (Human), UniProt P31749)
ALK = ALK (Homo sapiens (Human), UniProt Q9UM73)
Aurora A = Aurora A (Homo sapiens (Human), UniProt O14965)
BRAF = BRAF (Homo sapiens (Human), UniProt P15056)
BRAF (V599E) = BRAF (V599E) (Homo sapiens (Human), UniProt P15056, V600E)
BTK = BTK (Homo sapiens (Human), UniProt Q06187)
c-Kit = c-Kit (Homo sapiens (Human), UniProt P10721)
c-MET = c-MET (Homo sapiens (Human), UniProt P08581)
c-Src = c-Src (Homo sapiens (Human), UniProt P12931)
CDK1/cyclinB = CDK1/cyclinB (Homo sapiens (Human), UniProt P06493)
EGFR = EGFR (Homo sapiens (Human), UniProt P00533)
ERK1 = ERK1 (Homo sapiens (Human), UniProt P27361)
FGFR3 = FGFR3 (Homo sapiens (Human), UniProt P22607)
FLT1/VEGFR1 = FLT1/VEGFR1 (Homo sapiens (Human), UniProt P17948)
IGFIR = IGFIR (Homo sapiens (Human), UniProt P08069)
JAK3 = JAK3 (Homo sapiens (Human), UniProt P52333)
JNK3 = JNK3 (Homo sapiens (Human), UniProt P53779)
LYN = LYN (Homo sapiens (Human), UniProt P07948)
MEK1 = MEK1 (Homo sapiens (Human), UniProt Q02750)
P38a/MAPK14 = P38a/MAPK14 (Homo sapiens (Human), UniProt Q16539)
PKA = PKA (Homo sapiens (Human), UniProt P17612)
RIPK3 = RIPK3 (Homo sapiens (Human), UniProt Q9Y572)
RON/MSTIR = RON/MSTIR (Homo sapiens (Human), UniProt Q04912)

Cc1oncc1C(=O)Nc1ccc2[nH]c(-c3cc(N4CCN(C)CC4)cc(C(F)(F)F)c3)nc2c1 [Compound 5a, 5-methyl-N-(2-(3-(4-methylpiperazin-1-yl)-5-(trifluoromethyl)phenyl)-1H-benz[d]imidazol-5-yl)isoxazole-4-carboxamide]
inhibition at 10 µM (ABL1): 17.1% | inhibition at 10 µM (CDK2/cyclin E): 1.78% | inhibition at 10 µM (GSK3b): 3.98% | inhibition at 10 µM (KDR/VEGFR2): 13.2% | inhibition at 10 µM (LCK): 0.625% | inhibition at 10 µM (MTOR/FRAP1): 2.35% | inhibition at 10 µM (PLK1): 17.4% | inhibition at 10 µM (AKT1): 11.9% | inhibition at 10 µM (ALK): 12.6% | inhibition at 10 µM (Aurora A): 12.5% | inhibition at 10 µM (BRAF): 7.31% | inhibition at 10 µM (BRAF (V599E)): 11.9% | inhibition at 10 µM (BTK): 15.6% | inhibition at 10 µM (c-Kit): 15.5% | inhibition at 10 µM (c-MET): 9.18% | inhibition at 10 µM (c-Src): 0% | inhibition at 10 µM (CDK1/cyclinB): 9.31% | inhibition at 10 µM (EGFR): 4.09% | inhibition at 10 µM (ERK1): 5.18% | inhibition at 10 µM (FGFR3): 2.81% | inhibition at 10 µM (FLT1/VEGFR1): 12.7% | inhibition at 10 µM (IGFIR): 7.13% | inhibition at 10 µM (JAK3): 0% | inhibition at 10 µM (JNK3): 7.12% | inhibition at 10 µM (LYN): 15.2% | inhibition at 10 µM (MEK1): 18.8% | inhibition at 10 µM (P38a/MAPK14): 0% | inhibition at 10 µM (PKA): 8.46% | inhibition at 10 µM (RIPK3): 12.7% | inhibition at 10 µM (RON/MSTIR): 0%
